# Assay results taken from PubChem BioAssay AID652105 (National Center for Advancing Translational Sciences (NCATS), 2013).
# Chains of the proteins cited; added tags and fusions are not shown.
# UniProt P48426, whole entry: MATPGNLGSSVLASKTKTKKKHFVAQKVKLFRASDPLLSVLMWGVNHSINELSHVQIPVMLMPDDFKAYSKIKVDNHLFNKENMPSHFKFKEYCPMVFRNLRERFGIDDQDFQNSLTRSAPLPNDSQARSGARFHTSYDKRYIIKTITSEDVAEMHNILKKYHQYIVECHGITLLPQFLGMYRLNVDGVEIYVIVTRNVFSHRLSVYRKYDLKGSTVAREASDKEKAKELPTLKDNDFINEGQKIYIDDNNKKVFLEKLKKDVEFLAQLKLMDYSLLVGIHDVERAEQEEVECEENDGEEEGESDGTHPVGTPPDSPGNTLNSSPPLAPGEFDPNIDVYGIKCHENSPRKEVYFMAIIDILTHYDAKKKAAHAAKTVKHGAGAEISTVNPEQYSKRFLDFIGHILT
# The list shows a part of the results, in another mix than the full data. Active and inactive are the calls of the source. How the source made its calls: active means max response of -50% or lower; inconclusive means between -30% and -50%; inactive means -30% or higher.
# Biological target: Phosphatidylinositol 5-phosphate 4-kinase type-2 alpha (Homo sapiens) (UniProt P48426)
# Assay: qHTS for Inhibitors of phosphatidylinositol 5-phosphate 4-kinase (PI5P4K); further: value at the top dose of about 77 µM
# Details: PI5P4Kalpha enzyme, ADP-Glo luminescence, 60 min; stronger effect = lower value
# Source text: In addition to finding PI5P, we discovered the type II phosphatidylinositol 5-phosphate 4-kinase (PI5P4K) family (alpha, beta, gamma isoforms) that catalyze the conversion of PI5P to PI(4,5)P2. Alternatively, PI(4,5)P2 can also be synthesized through phosphatidylinositol-4-phosphate (PI4P) by the type I phosphatidylinositol 4-phosphate 5-kinases (PI4P5K). These PI5P4K enzymes therefore represent one way by which cells can regulate endogenous PI5P levels and play important roles in insulin signaling and in stress responses.
# This proposal aims to identify and optimize specific modulators of human PI5P4K, phosphatidylinositol-5-phosphate 4-kinase (Type II PIPK), a family of kinases that regulate AKT signaling and tumor cell growth. In this project we aim to identify inhibitors of human PI5P4K using a quantitative high-throughput screening approach against the MLSMR containing ~400,000 small molecules.
# NIH Chemical Genomics Center [NCGC] […]
# 2 microL of PI5P4Kalpha/substrate buffer (columns 1-2, 5-48) are dispensed into Greiner white solid bottom 1536-well assay plates; column 3 receives only PI5P4Kalpha buffer as 0x substrate controls; column 4 receives only substrate buffer as 0x PI5P4Kalpha controls. […] They are then transferred to a ViewLux high-throughput CCD imager (PerkinElmer) wherein single end-point measurements of luminescence are acquired using a clear filter.
# On the % scale 0 is the no-effect control and ±100 the full control effect.
row,SMILES,max response
1,CCC(=O)N(c1ccccc1)C1(COC)CCN(CCn2nnn(CC)c2=O)CC1,inactive: 5.82%
2,CCC(=O)N(c1ccccc1)C1(COC)CCN(CCc2cccs2)CC1,inactive: -3.05%
